Data from paper PMC12287680, “Efficient Acyloxymethylation of Psilocin and Other Tryptamines Yielding ACOM Prodrugs for Psychedelic‐Assisted Therapy” (Archiv Der Pharmazie, 2025).

Experiments:
[1] = Half-lives in pooled human plasma at 37°C; assay type: in vitro ADME; conditions: 100% (undiluted) pooled human plasma, 100% pooled human plasma, [ASA]0 = 560 µM
Method: As a measure of the drug release rate in the systemic blood circulation, we determined the half‐lives of 15, 16, and 23–26 in pooled human plasma. […] This illustrates that the drug release kinetics in human plasma are highly dependent upon the chosen acyl residue, which allows for tailoring the prodrug's pharmacokinetic profile to the therapeutic requirements. To assess the contribution of nonspecific hydrolysis to the observed kinetics, we incubated the prodrugs at the same concentration in the buffer used to dilute the plasma samples.
The kinetic studies were carried out by following the loss of substrate under the indicated conditions using HPLC‐UV. Pooled human plasma was obtained commercially (Biowest, France), while human saliva was freshly collected with the written informed consent of the saliva donors. […] Pseudo‐first‐order rate constants for the observed degradation were determined from the slope of linear plots of ln(peak area) versus time. […]
^a The release kinetics of the prodrugs were evaluated in vitro in analogy to the precedent literature.^[1] […] The samples were immediately quenched with acetonitrile (2:1), centrifuged, decanted, and analyzed via HPLC-UV. Half-lives were determined assuming first-order kinetics; specific values are the mean of triplicates ± standard deviation. […]

[2] = literature value, supplement ref 3; cited from earlier work

## CC(=O)Oc1ccccc1C(=O)O [ASA, Acetylsalicylic acid, reference compound]
[1]
  half-life at 560 µM: 2.43 ± 0.317 h
[2]
  t1/2 (lit.) in human plasma: 2.17 ± 0.8 h
